Measured values published in patent publication US20250042968A1, “EPHRIN LIGAND MIMETIC PEPTIDES FOR THE TREATMENT OF NEURODEGENERATIVE DISEASES” (University of Miami, priority 2022, published 2025).

Protein sequences, listed by entry. Tags and fused reporters are not part of them. Residues count along the entry.
UniProt P29317, 24-976, species assumed: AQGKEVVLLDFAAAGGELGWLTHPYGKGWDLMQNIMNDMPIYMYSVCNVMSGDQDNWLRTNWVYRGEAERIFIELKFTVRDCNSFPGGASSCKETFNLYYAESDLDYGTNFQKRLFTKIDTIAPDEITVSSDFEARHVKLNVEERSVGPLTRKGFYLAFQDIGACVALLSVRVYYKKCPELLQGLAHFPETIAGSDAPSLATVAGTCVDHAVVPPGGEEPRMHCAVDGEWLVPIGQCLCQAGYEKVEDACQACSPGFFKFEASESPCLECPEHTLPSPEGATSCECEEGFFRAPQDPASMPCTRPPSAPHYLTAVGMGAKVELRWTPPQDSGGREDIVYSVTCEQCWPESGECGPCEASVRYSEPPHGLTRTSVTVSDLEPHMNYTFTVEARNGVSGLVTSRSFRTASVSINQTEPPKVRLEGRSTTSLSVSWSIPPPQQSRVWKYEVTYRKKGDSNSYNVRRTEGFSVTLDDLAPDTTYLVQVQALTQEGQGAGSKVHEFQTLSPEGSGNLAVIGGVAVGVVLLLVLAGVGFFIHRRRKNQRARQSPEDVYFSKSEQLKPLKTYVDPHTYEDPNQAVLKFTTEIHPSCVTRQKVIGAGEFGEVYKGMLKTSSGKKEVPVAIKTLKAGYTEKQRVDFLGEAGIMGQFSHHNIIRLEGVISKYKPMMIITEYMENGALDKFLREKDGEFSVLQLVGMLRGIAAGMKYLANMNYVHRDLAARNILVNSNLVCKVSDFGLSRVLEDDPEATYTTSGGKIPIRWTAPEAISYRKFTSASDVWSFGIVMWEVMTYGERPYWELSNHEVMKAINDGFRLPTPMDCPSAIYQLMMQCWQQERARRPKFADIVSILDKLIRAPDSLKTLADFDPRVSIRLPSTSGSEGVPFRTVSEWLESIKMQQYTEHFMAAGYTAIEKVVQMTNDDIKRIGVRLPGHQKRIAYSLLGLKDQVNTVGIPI

Columns and labels:
EphB3 = target: T1, EphB3 (Homo sapiens, UniProt P54753); test: Label-free Biolayer Interferometry (BLI) binding kinetics, EphB3
T1 sequence (P54753 34-998): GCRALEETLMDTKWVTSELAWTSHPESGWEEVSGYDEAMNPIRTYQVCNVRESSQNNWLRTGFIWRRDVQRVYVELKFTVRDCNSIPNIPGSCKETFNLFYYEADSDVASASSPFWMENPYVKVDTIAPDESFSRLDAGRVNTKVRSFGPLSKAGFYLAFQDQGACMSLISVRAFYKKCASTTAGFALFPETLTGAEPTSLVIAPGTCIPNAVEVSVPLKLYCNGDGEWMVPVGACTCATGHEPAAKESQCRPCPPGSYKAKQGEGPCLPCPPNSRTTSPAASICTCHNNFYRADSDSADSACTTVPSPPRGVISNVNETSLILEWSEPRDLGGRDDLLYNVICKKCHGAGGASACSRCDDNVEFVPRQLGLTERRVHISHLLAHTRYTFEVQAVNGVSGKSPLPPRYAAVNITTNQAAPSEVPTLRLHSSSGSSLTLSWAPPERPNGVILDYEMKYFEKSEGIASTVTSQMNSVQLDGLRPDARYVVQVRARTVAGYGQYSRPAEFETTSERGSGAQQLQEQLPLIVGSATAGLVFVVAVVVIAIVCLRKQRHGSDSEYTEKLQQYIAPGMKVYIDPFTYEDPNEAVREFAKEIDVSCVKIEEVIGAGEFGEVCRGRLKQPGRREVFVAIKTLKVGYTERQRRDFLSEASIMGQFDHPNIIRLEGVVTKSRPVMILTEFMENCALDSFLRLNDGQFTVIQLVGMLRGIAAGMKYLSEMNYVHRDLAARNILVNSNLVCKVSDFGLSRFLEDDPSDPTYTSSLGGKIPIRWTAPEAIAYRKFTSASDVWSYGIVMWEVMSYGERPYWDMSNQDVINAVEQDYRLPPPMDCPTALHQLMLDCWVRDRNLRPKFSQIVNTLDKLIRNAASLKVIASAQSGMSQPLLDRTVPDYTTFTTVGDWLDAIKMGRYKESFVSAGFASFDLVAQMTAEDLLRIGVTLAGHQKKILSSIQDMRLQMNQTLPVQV
Description: (§1) In this example, the binding kinetics of xEFN_RBD2, xEFN_RBD3, and xEFN_RBD4 were assayed for binding and dissociation from EphA2, EphB2, and EphB3. Additionally, a known EphB2 targeting peptide sequence (SNEW) was tested concurrently. […]. Growth Factors. 2014 Dec; 32(6):236-46). […]. J Biol Chem. 2007 Dec. 14; 282(50):36505-13. Label-free Biolayer Interferometry (BLI) was used to determine binding kinetics for the assayed peptides. Binding kinetics were measured using a ForteBio Octet TX biolayer interferometry instrument (Molecular Devices ForteBio LLC, Fremont, CA) according to manufacturer instructions. Binding response was recorded and specific signal was normalized by subtracting background control from the dataset. Data analysis was performed with Octet Data Analysis HT 10.0 software. BLI was used to assay kinetic binding constants (Ka, Kd) and equilibrium binding constants (affinity, Ka=1/Kd). Response was measured as a nm shift in the interference pattern and is proportional to the number of molecules bound to the surface of the biosensor. Response was plotted in sensorgrams for the 4 test peptides with binding kinetics toward 3 Eph receptors: FIG. 23A for EphA2, FIG. 23B for EphB2, and FIG. 23C for EphB3. Response was plotted on the y-axis and time was plotted on the x-axis. […].

EphB2 to ephrinB1 = target: T2, EphB2 to ephrinB1 (Homo sapiens, UniProt P29323); test: In vitro binding assay, percent binding of EphB2 to ephrinB1; details: EphB2 50 ng/ml and 200 ng/mL
T2 sequence (P29323 19-543 limits assumed): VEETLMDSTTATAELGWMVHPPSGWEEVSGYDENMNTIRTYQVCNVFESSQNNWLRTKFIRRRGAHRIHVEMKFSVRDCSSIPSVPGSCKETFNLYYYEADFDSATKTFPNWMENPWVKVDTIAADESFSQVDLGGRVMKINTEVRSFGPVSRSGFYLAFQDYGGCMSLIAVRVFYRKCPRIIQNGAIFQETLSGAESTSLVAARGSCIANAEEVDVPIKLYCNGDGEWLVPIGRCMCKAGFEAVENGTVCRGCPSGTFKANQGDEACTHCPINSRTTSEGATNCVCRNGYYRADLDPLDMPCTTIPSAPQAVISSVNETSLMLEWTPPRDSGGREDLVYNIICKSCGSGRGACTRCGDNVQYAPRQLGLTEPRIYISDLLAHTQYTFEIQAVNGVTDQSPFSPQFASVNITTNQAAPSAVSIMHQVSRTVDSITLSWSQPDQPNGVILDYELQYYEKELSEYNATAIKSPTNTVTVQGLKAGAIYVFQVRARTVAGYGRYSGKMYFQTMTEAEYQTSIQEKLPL
Text: EphB2 (PDB: 2QBX) is a synthetic construct described in Chrencik J E et al. 2007. […] Key molecular interactions between xEFN_RBD3 and the EphB2 ligand binding pocket (LBP) are shown in the diagram of FIG. 24B and listed in Table 2 below. In Table 2, under interaction type, H-bond refers to a hydrogen bond and ionic refers to an ionic bond.

EphA2 = EphA2 (Homo sapiens, UniProt P29317); test: Label-free Biolayer Interferometry (BLI) binding kinetics, EphA2
Description: as §1

EphB2 = EphB2 (Homo sapiens, UniProt P29323); test: Label-free Biolayer Interferometry (BLI) binding kinetics, EphB2
isolated mouse RGCs = test: Neurite outgrowth, long-term (6 days), Incucyte Zoom live cell imaging; assay type: cell-based; details: 1 μM, end of 6-day period
Description: Mouse retinal ganglion cells (RGC): Mouse R GCs were isolated as follows. Briefly, retinas from postnatal day 8-10 (p8-10) mouse pups were dissected and digested using a papain solution (16.5 U/mL) for 30 minutes at 37° C. Following dissociation, macrophage and endothelial cells were removed from the cell suspension by panning with the anti-macrophage antiserum (Accurate Chemical, Westbury, NY). Finally, RGCs were immunopanned in plates containing the antibody against Thy1.2 and were then released by incubation with trypsin solution. RGCs were grown on poly-L-lysine coated plates in serum-free Neurobasal media (Invitrogen, Carlsbad, CA), supplemented with B-27 supplement, CNTF (10 ng/ml), and BDNF (10 ng/ml).
mRGCs were used to analyze dendrite sprouting, axonal polarization and extension, and ephrin receptor phosphorylation following treatment with xEFN peptides. RGCs were isolated as described above and plated onto 24 well plates at a concentration of 4×10^4 cells/well for short-term (48 h) experiments, or into 96-well plates at a concentration of 1,000 cells/well for long-term (6 days) experiments in an Incucyte Zoom (Essen Biosciences) instrument for live cell imaging. […] Neurite sprouting and extension were quantified using the automated Incucyte Zoom NeuroTrack Processing algorithm for real-time, label-free neurite segmentation and quantitation (FIG. 13).

Sequence | binding to EphB3 (BLI, fitted dissociation constant) (EphB3) | percent binding of EphB2 to ephrinB1 in the presence of increasing peptide concentration (EphB2 to ephrinB1) | binding to EphA2 (BLI, fitted dissociation constant) (EphA2) | binding to EphB2 (BLI, fitted dissociation constant) (EphB2) | increase in overall neurite length over day 0 measurement (isolated mouse RGCs)
FTIKFQEFSPNLWGL [xEFN_RBD3] | strong binding | competitive antagonist action | strong binding | strong binding | –
SNEWIQPRLPQH [published EphB2 targeting peptide, reference compound] | – | – | – | – | 145.31+/−18.48%
